Cyclic peptide permeability, from CycPeptMPDB

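Lipid, pH, incubation time, direction and concentration are not recorded in the data file. Other peptides of the study may be missing here. Peptides that the database sets to -10, its floor, are left out.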

PAMPA measures passive passage through an artificial lipid membrane.
Values are log10 P with P in cm/s, so -5 is more permeable than -7.

- CCCCCN1CC(=O)N(C)[C@@H](CC(C)C)C(=O)N[C@@H](CCCC)C(=O)N2CCC[C@@H]2C(=O)N(CCC)CC(=O)N[C@@H](Cc2ccccc2)C1=O: PAMPA -5.56 (log10 cm/s)
- CCCC[C@@H]1NC(=O)[C@H](CC(C)C)N(C)C(=O)CN(CCOC)C(=O)[C@H](Cc2ccccc2)NC(=O)CN(Cc2ccc(Cl)cc2)C(=O)[C@H]2CCCN2C1=O: PAMPA -5.94 (log10 cm/s)
- CCCC[C@@H]1NC(=O)[C@H](CC(C)C)N(C)C(=O)CN(CCCN2CCCC2=O)C(=O)[C@H](C)NC(=O)CN(Cc2cc(CC(C)C)on2)C(=O)[C@H]2CCCN2C1=O: PAMPA -6.59 (log10 cm/s)
- CCCCCN1CC(=O)N(C)[C@@H](CC(C)C)C(=O)N[C@@H](CCCC)C(=O)N2CCC[C@@H]2C(=O)N(CCCCc2ccccc2)CC(=O)N[C@@H](CC(C)C)C1=O: PAMPA -6.71 (log10 cm/s)
- CCCC[C@@H]1NC(=O)[C@H](CC(C)C)N(C)C(=O)CN(CC2CCOCC2)C(=O)[C@H](Cc2ccccc2)NC(=O)CN(CC(C)C)C(=O)[C@H]2CCCN2C1=O: PAMPA -5.07 (log10 cm/s)
- CCCC[C@@H]1NC(=O)[C@H](CC(C)C)N(C)C(=O)CN(CCOC)C(=O)[C@H](CC(C)C)NC(=O)CN(CCN2CCOCC2)C(=O)[C@H]2CCCN2C1=O: PAMPA -6.64 (log10 cm/s)
- CCCC[C@@H]1NC(=O)[C@H](CC(C)C)N(C)C(=O)CN(CCCN2CCCC2=O)C(=O)[C@H](Cc2ccc3ccccc3c2)NC(=O)CN(CCN2CCOCC2)C(=O)[C@H]2CCCN2C1=O: PAMPA -6.47 (log10 cm/s)
- CCCC[C@@H]1NC(=O)[C@H](CC(C)C)N(C)C(=O)CN(CCOC)C(=O)[C@H](Cc2ccccc2)NC(=O)CN(Cc2ccccc2Cn2cccn2)C(=O)[C@H]2CCCN2C1=O: PAMPA -5.26 (log10 cm/s)
- CCCC[C@@H]1NC(=O)[C@H](CC(C)C)N(C)C(=O)CN(CCc2cccnc2)C(=O)[C@H](Cc2ccc3ccccc3c2)NC(=O)CN(Cc2ccccc2Cn2cccn2)C(=O)[C@H]2CCCN2C1=O: PAMPA -6.41 (log10 cm/s)
- CCCC[C@@H]1NC(=O)[C@H](CC(C)C)N(C)C(=O)CN(CCOC)C(=O)[C@H](Cc2ccc3ccccc3c2)NC(=O)CN(Cc2cc(CC(C)C)on2)C(=O)[C@H]2CCCN2C1=O: PAMPA -6.90 (log10 cm/s)
- CCCC[C@@H]1NC(=O)[C@H](CC(C)C)N(C)C(=O)CN(Cc2ccccc2)C(=O)[C@H](C)NC(=O)CN(CCC)C(=O)[C@H]2CCCN2C1=O: PAMPA -5.12 (log10 cm/s)
- CCCC[C@@H]1NC(=O)[C@H](CC(C)C)N(C)C(=O)CN(Cc2ccccc2)C(=O)[C@H](CC(C)C)NC(=O)CN(Cc2cc(CC(C)C)on2)C(=O)[C@H]2CCCN2C1=O: PAMPA -6.49 (log10 cm/s)
- CCCC[C@@H]1NC(=O)[C@H](CC(C)C)N(C)C(=O)CN(CC2CCCCC2)C(=O)[C@H](Cc2ccccc2)NC(=O)CN(Cc2cc(CC(C)C)on2)C(=O)[C@H]2CCCN2C1=O: PAMPA -7.35 (log10 cm/s)
- CCCC[C@@H]1NC(=O)[C@H](CC(C)C)N(C)C(=O)CN(CCOc2ccccc2)C(=O)[C@H](Cc2ccc3ccccc3c2)NC(=O)CN(CC(C)C)C(=O)[C@H]2CCCN2C1=O: PAMPA -7.97 (log10 cm/s)
- CCCC[C@@H]1NC(=O)[C@H](CC(C)C)N(C)C(=O)CN(CCCc2ccccc2)C(=O)[C@H](C)NC(=O)CN(Cc2ccc(Cl)cc2)C(=O)[C@H]2CCCN2C1=O: PAMPA -6.00 (log10 cm/s)
- CCCC[C@@H]1NC(=O)[C@H](CC(C)C)N(C)C(=O)CN(CC2CCCCC2)C(=O)[C@H](C)NC(=O)CN(CCCCc2ccccc2)C(=O)[C@H]2CCCN2C1=O: PAMPA -6.24 (log10 cm/s)
- CCCC[C@@H]1NC(=O)[C@H](CC(C)C)N(C)C(=O)CN(CCCN2CCCC2=O)C(=O)[C@H](C)NC(=O)CN(Cc2ccccc2Cn2cccn2)C(=O)[C@H]2CCCN2C1=O: PAMPA -7.45 (log10 cm/s)
- CCCC[C@@H]1NC(=O)[C@H](CC(C)C)N(C)C(=O)CN(CCCc2cnn(C)c2)C(=O)[C@H](Cc2ccccc2)NC(=O)CN(CC(C)C)C(=O)[C@H]2CCCN2C1=O: PAMPA -5.22 (log10 cm/s)
- CCCC[C@@H]1NC(=O)[C@H](CC(C)C)N(C)C(=O)CN(CCCc2ccccc2)C(=O)[C@H](Cc2ccccc2)NC(=O)CN(CC(C)C)C(=O)[C@H]2CCCN2C1=O: PAMPA -6.57 (log10 cm/s)
- CCCCCN1CC(=O)N(C)[C@@H](CC(C)C)C(=O)N[C@@H](CCCC)C(=O)N2CCC[C@@H]2C(=O)N(CC(C)C)CC(=O)N[C@@H](CC(C)C)C1=O: PAMPA -5.54 (log10 cm/s)
- CCCC[C@@H]1NC(=O)[C@H](CC(C)C)N(C)C(=O)CN(CCOc2ccccc2)C(=O)[C@H](CC(C)C)NC(=O)CN(CCN2CCOCC2)C(=O)[C@H]2CCCN2C1=O: PAMPA -5.60 (log10 cm/s)

Repeated from above, the 3 entries with the highest PAMPA:

SMILES	PAMPA (log10 cm/s)
CCCC[C@@H]1NC(=O)[C@H](CC(C)C)N(C)C(=O)CN(CC2CCOCC2)C(=O)[C@H](Cc2ccccc2)NC(=O)CN(CC(C)C)C(=O)[C@H]2CCCN2C1=O	-5.07
CCCC[C@@H]1NC(=O)[C@H](CC(C)C)N(C)C(=O)CN(Cc2ccccc2)C(=O)[C@H](C)NC(=O)CN(CCC)C(=O)[C@H]2CCCN2C1=O	-5.12
CCCC[C@@H]1NC(=O)[C@H](CC(C)C)N(C)C(=O)CN(CCCc2cnn(C)c2)C(=O)[C@H](Cc2ccccc2)NC(=O)CN(CC(C)C)C(=O)[C@H]2CCCN2C1=O	-5.22

Values of Furukawa et al. 2016, doi:10.1021/acs.jmedchem.6b01246, as listed in CycPeptMPDB.